From ChEMBL document CHEMBL5344424, “3-Hydroxypyridin-4(1H)-one Derivatives as pqs Quorum Sensing Inhibitors Attenuate Virulence and Reduce Antibiotic Resistance in Pseudomonas aeruginosa” (J Med Chem, 2023)

Test: Metal chelating activity assessed as compound-Fe3+ complex formation by measuring fluorescence signal by fluorescence spectrophotometry

SMILES: CC(C)OP(=O)(F)OC(C)C
- Activity: 20.9
